In ChEMBL document CHEMBL4368911, “Metal-Binding Pharmacophore Library Yields the Discovery of a Glyoxalase 1 Inhibitor” (J Med Chem, 2019):
pKi: −log10 of the molar value.

The chains behind the UniProt entries cited, without tags or fusion partners. Where a name states a change or a piece, a line headed by the entry shows the natural chain unless it says otherwise.
UniProt Q04760: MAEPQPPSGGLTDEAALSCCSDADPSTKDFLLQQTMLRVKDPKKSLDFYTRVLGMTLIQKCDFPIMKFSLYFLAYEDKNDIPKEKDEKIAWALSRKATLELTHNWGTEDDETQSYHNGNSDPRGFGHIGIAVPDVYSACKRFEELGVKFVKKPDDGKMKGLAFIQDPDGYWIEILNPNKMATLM

Biological target: Lactoylglutathione lyase (Homo sapiens, UniProt Q04760)
Assay: Inhibition of human GLO1

pKi: 7.96
Compound: COCCCn1ccc2cc(-c3cc(-c4ccccc4)cc(=O)n3O)cnc21
